Experiment: Antioxidant activity assessed as inhibition of Fe2+-induced lipid peroxidation after 15 to 60 mins by TBARS assay relative to control
Format: functional
Design: concentration or dose not given beside the values
Procedure, shortened: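 Substrate: egg yolk lipoprotein suspension, made by homogenising yolk with an equal volume of phosphate buffer pH 7.4. Compounds were added as 10^-3 mol/mL solution, with 0.7% FeSO4·7H2O to start non-enzymatic peroxidation, at 37 °C. Controls were Fe only and a blank with neither Fe nor compound; tocopheryl acetate was the reference. The supernatant was heated with acidic thiobarbituric acid at 95 °C for 1 h, extracted into n-butanol–pyridine 15:1, and read by optical density.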

Point of comparison: `O=[N+]([O-])c1ncn(CC(O)CCl)c1[N+](=O)[O-]` (stereo not drawn), Activity 56.5%. Against it:
- CC(=O)Cn1c(C)nc([N+](=O)[O-])c1[N+](=O)[O-] — lower, 13.1%
- O=C(CCl)Cn1cnc([N+](=O)[O-])c1[N+](=O)[O-] — higher, 63.7%

From ChEMBL document CHEMBL1153876, “Synthesis of some N-substituted nitroimidazole derivatives as potential antioxidant and antifungal agents” (2009)
